The values that follow come from ChEMBL document CHEMBL4354860, “Targeting the Regulatory Site of ER Aminopeptidase 1 Leads to the Discovery of a Natural Product Modulator of Antigen Presentation” (J Med Chem, 2020).

Sequences of proteins named here, by UniProt entry; tags and fusion partners are left off. A change or cut given only in a name is not applied to a line headed by its entry.
UniProt Q9NZ08: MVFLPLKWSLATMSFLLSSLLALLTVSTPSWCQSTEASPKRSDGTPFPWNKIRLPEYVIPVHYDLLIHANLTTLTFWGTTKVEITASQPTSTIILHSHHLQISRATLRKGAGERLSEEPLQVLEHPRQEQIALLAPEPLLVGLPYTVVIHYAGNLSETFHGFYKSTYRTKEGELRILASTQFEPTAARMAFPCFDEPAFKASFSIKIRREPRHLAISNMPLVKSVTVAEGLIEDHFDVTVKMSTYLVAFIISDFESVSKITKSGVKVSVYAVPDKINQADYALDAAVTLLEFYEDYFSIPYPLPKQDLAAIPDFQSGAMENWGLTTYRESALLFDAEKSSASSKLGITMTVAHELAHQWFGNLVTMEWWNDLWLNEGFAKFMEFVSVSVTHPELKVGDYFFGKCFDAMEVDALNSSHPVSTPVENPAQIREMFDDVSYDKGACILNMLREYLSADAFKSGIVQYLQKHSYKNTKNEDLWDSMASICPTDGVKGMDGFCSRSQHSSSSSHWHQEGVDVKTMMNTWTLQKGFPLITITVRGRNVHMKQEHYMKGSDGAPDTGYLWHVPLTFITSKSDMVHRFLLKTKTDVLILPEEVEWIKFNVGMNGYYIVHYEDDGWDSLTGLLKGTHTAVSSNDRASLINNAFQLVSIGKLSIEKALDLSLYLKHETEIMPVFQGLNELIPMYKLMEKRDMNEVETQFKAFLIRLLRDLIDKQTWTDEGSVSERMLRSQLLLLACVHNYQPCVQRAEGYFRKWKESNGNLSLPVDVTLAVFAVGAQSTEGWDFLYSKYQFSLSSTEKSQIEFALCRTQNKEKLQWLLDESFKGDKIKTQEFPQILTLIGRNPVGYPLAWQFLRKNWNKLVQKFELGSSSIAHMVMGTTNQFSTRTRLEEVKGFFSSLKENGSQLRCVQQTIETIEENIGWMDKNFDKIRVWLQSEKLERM

Calls of active or inactive are those of the source. The calls are words filed in the database; no cut-off is given here.

For data set [1], the target named is Endoplasmic reticulum aminopeptidase 1 (Homo sapiens) (UniProt Q9NZ08). As to conditions: 5 to 15 uM.
In data set [2] the test system is HeLa. The data set is described as follows: Cytotoxicity against human HeLa cells assessed as effect on cell viability up to 167 uM by Zombie-violet staining based assay. Format: ADME.

With `C[C@@H]1C[C@H](O)[C@@]2(C)C(C(=O)O)=CCC[C@@H]2[C@@]1(C)CCc1ccoc1.N`, in data set [1], the inhibition result is “Active”. Further, the Activity entry in data set [2] is “Non-Toxic”.
